Values quoted from earlier work as cited in US6413946B1, “Composition for treatment of diabetes and treatment of diabetes” (Meiji Seika Kaisha, Ltd., priority 1997, dated 2002).

Conditions: orally administered; cited from earlier work

## sodium metavanadate
  Toxicity relative to vanadyl sulfate (VOSO4): about 10 times
